Values of other authors, collected in patent US8835436B2 (priority 2009, dated 2014).
pIC50: −log10 of the molar value.

Amino acid sequences for entries named in this document (tags omitted). A change or cut given only in a name is not applied to a line headed by its entry.
UniProt P28335: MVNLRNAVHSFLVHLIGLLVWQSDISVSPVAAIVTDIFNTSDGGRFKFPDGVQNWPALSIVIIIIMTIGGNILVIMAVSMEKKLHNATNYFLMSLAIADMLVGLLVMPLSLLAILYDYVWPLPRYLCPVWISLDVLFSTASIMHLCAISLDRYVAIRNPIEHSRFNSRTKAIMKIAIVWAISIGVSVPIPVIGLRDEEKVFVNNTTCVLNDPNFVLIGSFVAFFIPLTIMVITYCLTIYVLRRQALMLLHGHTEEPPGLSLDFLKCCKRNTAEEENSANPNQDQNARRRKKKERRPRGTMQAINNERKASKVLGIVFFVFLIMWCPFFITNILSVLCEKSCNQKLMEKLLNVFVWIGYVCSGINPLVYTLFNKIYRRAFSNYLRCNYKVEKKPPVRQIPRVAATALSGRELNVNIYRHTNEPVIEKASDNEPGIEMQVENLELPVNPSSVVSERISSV

Target: human recombinant 5-HT2C receptor (Homo sapiens (Human), UniProt P28335)
Details: read-out: Binding affinity to serotonin receptor 5-HT2C: IC50; cited from earlier work

In the case of `CCc1nn(CCCN2CCN(c3cccc(Cl)c3)CC2)c(=O)n1CCOc1ccccc1` [Nefazodone, nefazodone], the pIC50 is listed as 6.80.
